pIC50: −log10 of the molar value.

By UniProt entry, the sequences of proteins in these tests, tags left out. Residues count along the entry.
UniProt O00763, 129-2458: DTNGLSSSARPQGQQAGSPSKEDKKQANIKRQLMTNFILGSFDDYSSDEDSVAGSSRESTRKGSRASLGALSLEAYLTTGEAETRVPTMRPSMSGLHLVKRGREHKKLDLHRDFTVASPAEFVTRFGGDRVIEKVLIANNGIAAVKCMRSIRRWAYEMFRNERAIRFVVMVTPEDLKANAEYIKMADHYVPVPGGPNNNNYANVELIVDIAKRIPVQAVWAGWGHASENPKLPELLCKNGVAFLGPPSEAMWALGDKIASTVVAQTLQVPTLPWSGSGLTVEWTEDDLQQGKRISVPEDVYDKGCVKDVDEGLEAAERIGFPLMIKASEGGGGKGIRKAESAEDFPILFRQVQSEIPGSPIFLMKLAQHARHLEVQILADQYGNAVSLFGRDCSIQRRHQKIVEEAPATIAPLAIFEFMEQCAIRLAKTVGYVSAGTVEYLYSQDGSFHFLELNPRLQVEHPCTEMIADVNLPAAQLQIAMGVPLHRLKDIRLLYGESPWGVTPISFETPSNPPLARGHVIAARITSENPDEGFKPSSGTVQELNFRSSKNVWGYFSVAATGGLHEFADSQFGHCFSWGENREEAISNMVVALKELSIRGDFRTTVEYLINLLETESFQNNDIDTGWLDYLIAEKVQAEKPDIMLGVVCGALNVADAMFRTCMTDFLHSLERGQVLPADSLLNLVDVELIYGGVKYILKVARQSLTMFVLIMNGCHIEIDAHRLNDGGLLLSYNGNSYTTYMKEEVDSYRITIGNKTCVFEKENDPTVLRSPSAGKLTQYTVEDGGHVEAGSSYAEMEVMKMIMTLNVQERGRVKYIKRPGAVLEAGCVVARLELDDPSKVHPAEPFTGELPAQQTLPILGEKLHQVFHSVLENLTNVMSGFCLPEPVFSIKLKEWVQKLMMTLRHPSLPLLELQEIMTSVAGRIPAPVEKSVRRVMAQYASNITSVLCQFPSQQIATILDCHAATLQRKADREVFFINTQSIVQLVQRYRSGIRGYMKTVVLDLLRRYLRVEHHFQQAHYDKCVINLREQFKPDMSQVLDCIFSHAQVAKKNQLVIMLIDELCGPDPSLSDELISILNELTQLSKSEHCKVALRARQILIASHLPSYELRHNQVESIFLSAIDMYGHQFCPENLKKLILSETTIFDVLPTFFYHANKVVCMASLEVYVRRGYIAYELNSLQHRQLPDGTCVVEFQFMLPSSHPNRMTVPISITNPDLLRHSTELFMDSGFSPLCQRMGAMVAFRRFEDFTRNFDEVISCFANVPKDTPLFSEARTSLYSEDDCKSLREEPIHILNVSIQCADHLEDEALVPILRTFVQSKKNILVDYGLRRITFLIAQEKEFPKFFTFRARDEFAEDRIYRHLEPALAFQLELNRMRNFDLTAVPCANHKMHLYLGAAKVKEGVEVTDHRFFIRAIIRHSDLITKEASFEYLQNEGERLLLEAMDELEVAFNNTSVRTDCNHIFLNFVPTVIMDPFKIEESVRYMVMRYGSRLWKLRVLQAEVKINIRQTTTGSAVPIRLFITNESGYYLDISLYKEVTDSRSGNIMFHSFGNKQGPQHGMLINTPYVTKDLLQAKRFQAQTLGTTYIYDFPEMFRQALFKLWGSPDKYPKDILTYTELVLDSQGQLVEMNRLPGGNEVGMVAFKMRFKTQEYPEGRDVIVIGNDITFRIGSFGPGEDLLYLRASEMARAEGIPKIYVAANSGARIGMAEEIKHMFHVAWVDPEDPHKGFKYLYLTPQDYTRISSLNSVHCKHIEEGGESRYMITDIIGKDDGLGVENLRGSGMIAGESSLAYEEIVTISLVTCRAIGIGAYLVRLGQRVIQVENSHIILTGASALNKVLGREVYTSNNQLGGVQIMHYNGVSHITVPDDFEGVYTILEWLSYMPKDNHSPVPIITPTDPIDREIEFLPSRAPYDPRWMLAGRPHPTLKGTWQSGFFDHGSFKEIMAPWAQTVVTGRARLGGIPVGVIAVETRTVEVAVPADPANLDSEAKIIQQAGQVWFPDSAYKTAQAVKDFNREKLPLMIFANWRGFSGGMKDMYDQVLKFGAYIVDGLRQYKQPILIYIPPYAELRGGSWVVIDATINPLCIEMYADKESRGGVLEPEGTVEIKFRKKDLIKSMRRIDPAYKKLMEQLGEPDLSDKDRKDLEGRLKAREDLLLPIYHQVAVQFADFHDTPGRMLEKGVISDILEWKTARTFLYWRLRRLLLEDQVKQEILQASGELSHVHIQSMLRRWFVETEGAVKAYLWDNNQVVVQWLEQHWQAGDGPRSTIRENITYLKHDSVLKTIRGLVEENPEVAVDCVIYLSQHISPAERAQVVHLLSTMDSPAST

Drawing on patent publication US8962641B2, “Pyrimidine-substituted pyrrolidine derivatives, pharmaceutical compositions and uses thereof” (Boehringer Ingelheim International GmbH, priority 2013, dated 2015), this text covers IC50 for seven molecules.

The target in the assay is human ACC2 (Homo sapiens (Human), UniProt O00763). Briefly: ACC2 assay (spectrophotometric 384 well assay, NADH-linked kinetic method). The class given is biochemical. To be noted: hACC2 construct lacking 128 N-terminal amino acids; coupled lactate dehydrogenase/pyruvate kinase reaction, 340 nm, 25° C. The method, then:
Spectrophotometric 384 Well Assay
Malonyl CoA formation by acetyl CoA carboxylases is stoichometrically linked to the consumption of ATP. ACC2 activity is measured in a NADH-linked kinetic method measuring ADP generated during the ACC reaction using a coupled lactate dehydrogenase/pyruvate kinase reaction.
The protein is then expressed in insect cells using a baculoviral expression system. Protein purification is performed by anion exchange.
All compounds are dissolved in dimethyl sulfoxide (DMSO) to a concentration of 10 mM.
The enzymatic reaction is then started by addition of a mixture of NADH, acetyl Coenzyme A (both 200 μM f.c.) and ATP (500 uM f.c.). The decrease of the optical density (slope S) is then determined at 25° C. at a wavelength of 340 nm over 15 minutes in a spectrophotometric reader.
Each assay microtiter plate contains wells with vehicle instead of compound as controls for the non-inhibited enzyme (100% CTL; ‘HIGH’) and wells without acetyl-CoA as controls for non-specific NADH degradation (0% CTL; ‘LOW’).
Consider `CC(=O)N[C@@H](C)c1ccc(O[C@@H]2CCN(c3ncnc(N4CC(F)(F)C4)c3F)C2)cc1` [Example 8.249], for which the pIC50 was 6.39.
The result for `CC(=O)N[C@@H](C)c1ccc(O[C@@H]2CCN(c3ccnc(N4CC5CCCC5C4)n3)C2)cc1` (stereo partly shown) [Example 8.15] reads 6.39.
The result for `COC1CCCN(c2nccc(N3CC[C@@H](Oc4ccc([C@H](C)NC(C)=O)cc4)C3)n2)C1` (stereo partly shown) [Example 8.227] reads 6.38; that for `CC(=O)N[C@@H](C)c1ccc(O[C@@H]2CCN(c3nc(OC4CCCC4)ncc3F)C2)cc1` [Example 7.16], 6.39.
The result for `COc1c(OCC2CC2)ncnc1N1CC[C@@H](Oc2ccc([C@H](C)NC(=O)C3CC3)cc2)C1` [Example 10.3] reads 6.39; that for `CC(=O)N[C@@H](C)c1ccc(O[C@@H]2CCN(c3ncc(Oc4ccccn4)cn3)C2)cc1` [Example 7.13], 6.39.
As to `CO[C@H]1CCN(c2ncc(Cl)c(N3CC[C@@H](Oc4ccc([C@H](C)NC(C)=O)cc4)C3)n2)C1` [Example 8.160], the negative logarithm of the IC50 (pIC50) is 6.39.

In general, pIC50 refers to the IC50 on a negative log10 scale, so that one unit is a factor of ten. Higher therefore signals a small IC50.
